pIC50: −log10 of the molar value.
Target: EZH2 Y641F (Homo sapiens (Human), UniProt Q15910, Y641F)
Test: In vitro methyltransferase activity test (LANCE Ultra)
Assay type: biochemical
Settings: Recombinant PRC2 (EZH2-Y641F), 2.5 μM SAM/250 nM H3(1-50)K27me1, 3 hours, room temperature
Description: Recombinant PRC2 (EZH2-Y641F) was purchased from Active motif company, S-adenosyl-methionine (SAM) and Poly-L-lysine (PLL) were purchased from Sigma-Aldrich company, and H3(1-50)K27me1 peptide was purchased from Cisbio company. The detection system uses LANCEUltra system (Perkinelmer company). In the enzyme activity test, compounds to be tested were diluted by 8 gradient points in a ratio of 1:3, and added into a reaction plate, then 100 ng recombinase was added. And then a buffer [20 mM Tris pH8.5, 2 mM MgCl2, 0.01% Tween-20, 1 mM TCEP] containing 2.5 μM SAM/250 nM H3 (1-50)K27me1 premixtures was added, thus the enzyme reaction was started at room temperature. After reacting for 3 hours, a test solution premixed with PLL, detection antibody and Ulight was added, and reacted for 1h at room temperature, then the fluorescence value was read on a Tecan infinite pro. IC50 was calculated by fitting a four-factor model in the XLfit software.

Protein sequences, listed by entry. Tags and fused reporters are not part of them.
UniProt Q15910, whole entry Y641F: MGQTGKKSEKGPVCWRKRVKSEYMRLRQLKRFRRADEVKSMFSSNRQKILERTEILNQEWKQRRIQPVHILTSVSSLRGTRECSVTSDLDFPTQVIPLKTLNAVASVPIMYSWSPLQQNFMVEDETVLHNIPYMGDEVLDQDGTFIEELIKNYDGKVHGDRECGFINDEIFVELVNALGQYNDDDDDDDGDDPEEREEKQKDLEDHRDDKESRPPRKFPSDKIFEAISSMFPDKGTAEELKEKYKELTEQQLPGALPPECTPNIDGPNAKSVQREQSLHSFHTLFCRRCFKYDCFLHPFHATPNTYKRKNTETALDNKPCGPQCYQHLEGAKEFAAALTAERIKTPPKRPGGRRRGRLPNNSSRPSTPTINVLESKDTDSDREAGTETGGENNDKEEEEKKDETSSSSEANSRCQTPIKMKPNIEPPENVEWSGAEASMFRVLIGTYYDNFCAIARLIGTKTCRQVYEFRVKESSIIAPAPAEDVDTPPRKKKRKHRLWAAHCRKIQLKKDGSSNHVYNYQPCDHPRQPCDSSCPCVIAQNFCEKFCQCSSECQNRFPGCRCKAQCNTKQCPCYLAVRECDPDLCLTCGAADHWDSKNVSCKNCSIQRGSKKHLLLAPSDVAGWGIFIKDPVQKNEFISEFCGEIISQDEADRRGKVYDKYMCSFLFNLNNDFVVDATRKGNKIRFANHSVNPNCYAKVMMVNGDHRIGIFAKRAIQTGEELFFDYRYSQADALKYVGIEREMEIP

SMILES: C=CCC1(S(=O)(=O)n2cc(C)c3c(C(=O)NCc4c(C)cc(C)[nH]c4=O)cc(-c4ccc(N5CCN(C)CC5)nc4)cc32)CC1 [Compound G-2]
- pIC50: 7.85

From patent US10793549B2, “Sulfuryl-substituted benzoheterocyclic derivative, preparation method and medical use thereof” (SHANGHAI HAIYAN PHARMACEUTICAL TECHNOLOGY CO., LTD., priority 2016, dated 2020)
